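Interpolation was linear, between the two tested concentrations surrounding the appropriate level; five concentrations were tested over 48 hours in 96-well plates. At the GI50, growth is halved. Definition used: TGI = concentration required for complete inhibition of growth.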
Assays:
Test in all cases: NCI anticancer screen, dose series, 48 h
NCI-H23 lung = tested on: NCI-H23 lung
NCI-H322M lung = tested on: NCI-H322M lung
NCI-H460 lung = tested on: NCI-H460 lung
NCI-H522 lung = tested on: NCI-H522 lung
NCI/ADR-RES ovarian = tested on: NCI/ADR-RES ovarian
OVCAR-3 ovarian = tested on: OVCAR-3 ovarian
OVCAR-4 ovarian = tested on: OVCAR-4 ovarian
OVCAR-5 ovarian = tested on: OVCAR-5 ovarian
OVCAR-8 ovarian = tested on: OVCAR-8 ovarian
PC-3 prostate = tested on: PC-3 prostate
RPMI-8226 leukemia = tested on: RPMI-8226 leukemia
SF-268 CNS = tested on: SF-268 CNS
SF-295 CNS = tested on: SF-295 CNS
SK-MEL-2 melanoma = tested on: SK-MEL-2 melanoma
SK-MEL-28 melanoma = tested on: SK-MEL-28 melanoma
SK-MEL-5 melanoma = tested on: SK-MEL-5 melanoma
SK-OV-3 ovarian = tested on: SK-OV-3 ovarian
SN12C renal = tested on: SN12C renal
SNB-19 CNS = tested on: SNB-19 CNS
SNB-75 CNS = tested on: SNB-75 CNS
SR leukemia = tested on: SR leukemia
SW-620 colon = tested on: SW-620 colon
T-47D breast = tested on: T-47D breast
TK-10 renal = tested on: TK-10 renal
U251 CNS = tested on: U251 CNS
UACC-257 melanoma = tested on: UACC-257 melanoma
UACC-62 melanoma = tested on: UACC-62 melanoma
UO-31 renal = tested on: UO-31 renal

Question: With COP(C)(=O)C(N)Cc1ccccc1.O=[N+]([O-])c1cc([N+](=O)[O-])c(O)c([N+](=O)[O-])c1 as the compound, how does the TGI (NCI-H23 lung) read?
Answer: > 100 µM

Question: And the GI50 (NCI-H322M lung)?
Answer: > 100 µM

Question: And the TGI (NCI-H322M lung)?
Answer: > 100 µM

Question: And the GI50 (NCI-H460 lung)?
Answer: > 100 µM

Question: And the TGI (NCI-H460 lung)?
Answer: > 100 µM

Question: And the GI50 (NCI-H522 lung)?
Answer: 80.3 µM

Question: And the TGI (NCI-H522 lung)?
Answer: > 100 µM

Question: What about the GI50 (NCI/ADR-RES ovarian) of the same compound?
Answer: > 100 µM

Question: And the TGI (NCI/ADR-RES ovarian)?
Answer: > 100 µM

Question: What about the GI50 (OVCAR-3 ovarian) of the same compound?
Answer: > 100 µM

Question: What about the TGI (OVCAR-3 ovarian) of the same compound?
Answer: > 100 µM

Question: What about the GI50 (OVCAR-4 ovarian) of the same compound?
Answer: > 100 µM

Question: What about the TGI (OVCAR-4 ovarian) of the same compound?
Answer: > 100 µM

Question: And the GI50 (OVCAR-5 ovarian)?
Answer: > 100 µM

Question: And the TGI (OVCAR-5 ovarian)?
Answer: > 100 µM

Question: And the GI50 (OVCAR-8 ovarian)?
Answer: > 100 µM

Question: And the TGI (OVCAR-8 ovarian)?
Answer: > 100 µM

Question: And the GI50 (PC-3 prostate)?
Answer: > 100 µM

Question: And the TGI (PC-3 prostate)?
Answer: > 100 µM

Question: What about the GI50 (RPMI-8226 leukemia) of the same compound?
Answer: > 100 µM

Question: And the TGI (RPMI-8226 leukemia)?
Answer: > 100 µM

Question: And the GI50 (SF-268 CNS)?
Answer: > 100 µM

Question: What about the TGI (SF-268 CNS) of the same compound?
Answer: > 100 µM

Question: And the GI50 (SF-295 CNS)?
Answer: > 100 µM

Question: And the TGI (SF-295 CNS)?
Answer: > 100 µM

Question: What about the GI50 (SK-MEL-2 melanoma) of the same compound?
Answer: > 100 µM

Question: And the TGI (SK-MEL-2 melanoma)?
Answer: > 100 µM

Question: What about the GI50 (SK-MEL-28 melanoma) of the same compound?
Answer: > 100 µM

Question: And the TGI (SK-MEL-28 melanoma)?
Answer: > 100 µM

Question: And the GI50 (SK-MEL-5 melanoma)?
Answer: 71.8 µM

Question: And the TGI (SK-MEL-5 melanoma)?
Answer: > 100 µM

Question: And the GI50 (SK-OV-3 ovarian)?
Answer: > 100 µM

Question: And the TGI (SK-OV-3 ovarian)?
Answer: > 100 µM

Question: What about the GI50 (SN12C renal) of the same compound?
Answer: > 100 µM

Question: What about the TGI (SN12C renal) of the same compound?
Answer: > 100 µM

Question: And the GI50 (SNB-19 CNS)?
Answer: > 100 µM

Question: And the TGI (SNB-19 CNS)?
Answer: > 100 µM

Question: And the GI50 (SNB-75 CNS)?
Answer: > 100 µM

Question: What about the TGI (SNB-75 CNS) of the same compound?
Answer: > 100 µM

Question: What about the GI50 (SR leukemia) of the same compound?
Answer: > 100 µM

Question: What about the TGI (SR leukemia) of the same compound?
Answer: > 100 µM

Question: And the GI50 (SW-620 colon)?
Answer: > 100 µM

Question: And the TGI (SW-620 colon)?
Answer: > 100 µM

Question: And the GI50 (T-47D breast)?
Answer: > 100 µM

Question: And the TGI (T-47D breast)?
Answer: > 100 µM

Question: What about the GI50 (TK-10 renal) of the same compound?
Answer: > 100 µM

Question: And the TGI (TK-10 renal)?
Answer: > 100 µM

Question: What about the GI50 (U251 CNS) of the same compound?
Answer: > 100 µM

Question: And the TGI (U251 CNS)?
Answer: > 100 µM

Question: What about the GI50 (UACC-257 melanoma) of the same compound?
Answer: 97.2 µM

Question: And the TGI (UACC-257 melanoma)?
Answer: > 100 µM

Question: And the GI50 (UACC-62 melanoma)?
Answer: > 100 µM

Question: What about the TGI (UACC-62 melanoma) of the same compound?
Answer: > 100 µM

Question: And the GI50 (UO-31 renal)?
Answer: > 100 µM

Question: What about the TGI (UO-31 renal) of the same compound?
Answer: > 100 µM

Source: PubChem BioAssay (NCI)
